AlphaSeq binding of Ab-95 light chain variants to a spike HR2 peptide

Source: Engelhart et al. 2022 (doi:10.1038/s41597-022-01779-4), MIT Lincoln Laboratory and A-Alpha Bio; data file from the FLAb repository.

Target: peptide PDVDLGDISGINAS, taken from heptad repeat 2 (HR2) of SARS-CoV-2 spike.

Each scFv is VH, a (GGGGS)3 linker, VL, as in the parent Ab-95, and differs from it in the CDRs of the light chain only.
VH: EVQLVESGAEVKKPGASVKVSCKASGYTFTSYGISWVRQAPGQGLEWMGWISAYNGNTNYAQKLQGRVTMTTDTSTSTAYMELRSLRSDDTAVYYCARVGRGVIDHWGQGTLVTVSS
VL: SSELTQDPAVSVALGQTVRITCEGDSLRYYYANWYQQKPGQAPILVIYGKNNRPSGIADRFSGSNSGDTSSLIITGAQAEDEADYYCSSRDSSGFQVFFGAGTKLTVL

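The starting antibody came from a phage panning campaign against this peptide. Variants in AAYL52 differ from the parent at up to three CDR positions; double and triple changes were sampled at random. The assay is AlphaSeq: two haploid yeast populations carry antibody and antigen on their surface. After mating in shaken culture at 30 °C for 16 h, diploids were selected and their barcode pairs sequenced. The ratio of observed to expected reads was calibrated, replicate by replicate, on BCL2-family standards whose Kd was known from biolayer interferometry. There are three technical replicates.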

Each variant is given by its three light chain CDRs, as the data file delimits them; those of the parent are EGDSLRYYYAN, GKNNRPS, SSRDSSGFQVF.
Every variant below is changed at F98 of the VL (sequential numbering).
The read-out is the apparent dissociation constant on a log10 scale (nM): the lower, the stronger.
A mean of the replicates is given; it leaves out those without a signal.
"nd" means that the variant was in the library but no mating with the target was seen in that replicate; the authors take this as a sign of poor binding, and no number exists.
Nonspecific signal, from three strains lacking the peptide, appeared in 28% of pairings of library AAYL52, centred on 3.91 (5% of these signals below 2.90); values are not corrected for it.

Variant EGDSLRYYYAN, GKNYRPS, SSRMSSGFQVT showed 2.74, 2.91, 2.45 (mean 2.70).
Variant EGDSLRYYYAN, GKNNRPS, SSRDSSGFQVC showed 2.98, 2.76, 2.48 (mean 2.74).
Variant EGDCLRYYYAN, GKNNRPS, SSCDSSGFQVC showed 4.00, 3.22, nd (mean 3.61).
Variant EGDSLRYYYAN, GPNNRPS, SSRDSSGFQIP showed 3.41, 2.51, 2.94 (mean 2.95).
Variant EGDSLRYYYAN, GKNNRPS, KSRDSSGYQVS showed 2.44, 2.36, 3.95 (mean 2.92).
Variant EGDSLSYYYAN, GKNMRPS, SSRDSSGFQVS showed 2.08, 2.22, 2.19 (mean 2.16).
Variant EGDSLQYYYAN, GKNNRPS, SSRDESGFQVR showed 2.62, 2.69, 2.63 (mean 2.64).
Variant EGDSLSYYTAN, GKNNRPS, SSRDSSGFQVT showed 3.64, 2.47, 2.21 (mean 2.77).
Variant EGDSLRYYYAD, GKNNRPS, SSRSSSGFQVQ showed nd, 3.66, nd.
Variant EGDSLRYYYAN, GKNNRPS, SSLDSSGIQVW showed nd, 5.63, 4.63 (mean 5.13).
Variant EGDSLRYQYAN, GKVNRPS, SSRDSSGFQVQ showed 2.24, 2.45, 2.10 (mean 2.26).
Variant EGDSLRYYYKN, GKNNRPS, SSRNSSGFQVH showed 3.28, 3.96, nd (mean 3.62).
Variant EGDSLRYYYAN, GKNNRPS, SSRDDSGFKVM showed 4.13, 3.75, 3.08 (mean 3.65).
Variant EGDSLRYVYAN, GKNNRPS, SSRDSSGFQGG showed 2.34, 2.24, 1.65 (mean 2.08).
Variant EGDSLRYYYAN, GKNNRGS, SSRDSSGFIVN showed 3.32, 4.65, 2.76 (mean 3.58).
Variant EGDYLRYYYAN, GKNNRPS, SSRDSSNFQVN showed 3.16, 3.35, 3.65 (mean 3.39).
Variant EGDSLGYYYAK, GKNNRPS, SSRDSSGFQVT showed nd, nd, nd.
Variant EGDSLDYYYAN, GKNNRPS, SIRDSSGFQVC showed 2.41, 2.18, 2.05 (mean 2.21).
Variant EGDSLRYYYAN, GENNRPS, SSYDSSGFQVW showed 2.58, 2.62, 1.84 (mean 2.35).
Variant EGDSLRYYYAN, GKNNRNS, SSRDSSGDQVA showed 2.25, 2.23, 2.32 (mean 2.27).
Variant EGASLRYYYAN, GKPNRPS, SSRDSSGFQVC showed 4.64, 3.67, nd (mean 4.15).
Variant EGDSLRYYYAN, GKNNRMS, SSRDPSGFQVS showed 2.66, 2.33, nd (mean 2.49).
Variant EGDSARYKYAN, GKNNRPS, SSRDSSGFQVC showed 3.35, 3.29, nd (mean 3.32).
Variant EGDSLKYYYAN, GKNNRPS, SSGDSSGFQVM showed 4.91, 3.20, nd (mean 4.05).
Variant EGDSERYYYAN, GKNNRPS, SSRDSSFFQVG showed 5.48, nd, nd.
Variant EGDSLRYYYAN, GKNNRPS, SSRDSPGFQVW showed 2.74, 2.79, 2.37 (mean 2.63).
Variant EHDSLRYYYAN, GKNNRPS, SSRDSSGFQGT showed nd, 4.97, nd.
Variant EGDSLRYYYAN, GKNNRPS, SSHDSSGFQVA showed 3.42, 2.75, nd (mean 3.09).
Variant EGWSLRYYYAN, GKNNYPS, SSRDSSGFQVN showed nd, 3.49, nd.
Variant EGDSLRYYYAD, GKNNRPS, SSRDSSGFVVV showed nd, 4.66, nd.

Top 4 of the variants detected in all replicates, tightest first:

{"CDR-L1": "EGDSLRYVYAN", "CDR-L2": "GKNNRPS", "CDR-L3": "SSRDSSGFQGG", "log10 Kd, replicates": "2.34, 2.24, 1.65", "mean, log10 nM": "2.08"}
{"CDR-L1": "EGDSLSYYYAN", "CDR-L2": "GKNMRPS", "CDR-L3": "SSRDSSGFQVS", "log10 Kd, replicates": "2.08, 2.22, 2.19", "mean, log10 nM": "2.16"}
{"CDR-L1": "EGDSLDYYYAN", "CDR-L2": "GKNNRPS", "CDR-L3": "SIRDSSGFQVC", "log10 Kd, replicates": "2.41, 2.18, 2.05", "mean, log10 nM": "2.21"}
{"CDR-L1": "EGDSLRYQYAN", "CDR-L2": "GKVNRPS", "CDR-L3": "SSRDSSGFQVQ", "log10 Kd, replicates": "2.24, 2.45, 2.10", "mean, log10 nM": "2.26"}